In patent publication US9913901B2, “Combination therapy for treating HER2-positive cancers” (Merrimack Pharmaceuticals, Inc., priority 2012, dated 2018):

Assays:
BT-474-M3 cells = experiment: Co-localization of labeled MM-302 and trastuzumab by confocal microscopy; assay type: cell-based, human; details: co-incubation, 1 μM DIi5-labeled MM-302 and 1 μM 488-fluorophore-labeled trastuzumab
Procedure: Therefore, a co-localization experiment was performed.

BT-474-M3 xenograft = experiment: Breast tumor xenograft model; assay type: in vivo, mice
NCI-N87 xenograft = experiment: Gastric tumor xenograft model; assay type: in vivo, mice
[1] = system: MCF7 cells expressing HER2; experiment: Flow cytometry: MM-302 binding after trastuzumab pre-incubation; assay type: cell-based; details: 0, 3 or 10 μg/ml trastuzumab, then 3 μg/ml DIi5 MM-302, 3 hours at 37° C.; DIi5 and doxorubicin MFI
Procedure: Cells were evaluated by flow cytometry for both DIi5 labeled lipid in the liposome (left y-axis as mean fluorescence intensity (MFI)) and doxorubicin encapsulated by the liposome (right y-axis as MFI).
After incubation, cells were washed and then evaluated by flow cytometry for both liposome signal (DIi5) and doxorubicin signal (Dox).

[2] = tumors that grew >20% in volume from baseline

What does the source list for “trastuzumab: therapeutic anti-HER2 antibody that blocks intracellular signaling mediated by HER2”?
binding to the cell membrane (co-localization) (BT-474-M3 cells): both bind to the cell membrane; also recorded: both agents co-localize to the cell membrane; Responders (%) (BT-474-M3 xenograft; tumors shrinking >30%): (10%); PD (%) (BT-474-M3 xenograft; [2]): (50%); PD (number of tumors) (BT-474-M3 xenograft; [2]): 5; Responders (%) (NCI-N87 xenograft; tumors shrinking >30%): (22%); PD (number of tumors) (NCI-N87 xenograft; [2]): 0; effect of trastuzumab incubation on subsequent binding of MM-302 [1]: did not prevent subsequent binding of MM-302; also recorded: does not prevent subsequent binding of MM-302

Entries after “also recorded” stand apart in the source; their conditions may differ.
